## AlphaSeq binding of Ab-14 heavy chain variants to a spike HR2 peptide

Target: peptide PDVDLGDISGINAS, taken from heptad repeat 2 (HR2) of SARS-CoV-2 spike.

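The parent was found by panning a naive human phage display library on the peptide. Library AAYL49 holds single substitutions and randomly drawn double and triple substitutions in the CDRs. The assay is AlphaSeq: two haploid yeast populations carry antibody and antigen on their surface. Pairs that bind mate more often; barcode pairs of the diploids are counted by sequencing. Scores were corrected for input abundance and mapped to Kd with protein pairs of known affinity run in the same pool. Each pool was mated in three replicate cultures.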

Parent scFv Ab-14: VH joined to VL by three GGGGS repeats. Changes lie in the heavy chain CDRs alone.
VH: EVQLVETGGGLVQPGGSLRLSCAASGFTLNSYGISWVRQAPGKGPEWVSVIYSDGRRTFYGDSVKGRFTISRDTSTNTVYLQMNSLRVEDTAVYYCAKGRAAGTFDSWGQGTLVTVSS
VL: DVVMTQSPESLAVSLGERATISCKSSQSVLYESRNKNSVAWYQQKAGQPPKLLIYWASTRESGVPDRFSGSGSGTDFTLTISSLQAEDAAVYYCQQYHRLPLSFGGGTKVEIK

Positions count from residue 1 of the parent VH; A101F puts F in place of A.
Affinities are written as log10 Kd with Kd in nM; a lower number is a better binder.
The mean shown is taken over the replicates in which the pair was detected.
"nd" means that the variant was in the library but no mating with the target was seen in that replicate; the authors take this as a sign of poor binding, and no number exists.
Nonspecific signal, from three strains lacking the peptide, appeared in 15% of pairings of library AAYL49, centred on 4.06 (5% of these signals below 2.83); values are not corrected for it. Also given: how often the same scFv was detected with the empty control strains, with their mean in brackets.

changes | log10 Kd (nM) by replicate | log10 Kd (nM), mean | empty controls
A101F | 1.15 1.49 1.39 | 1.34 | 1/9 (3.30)
Y52I D54R R57I | 2.47 nd nd | 2.47 | 0/9
V64N R100C S107L | 4.61 5.47 6.20 | 5.43 | 3/9 (4.58)
Y60C A101T F105I | nd nd nd | nd | 0/9
S35Y G55Q K65R | nd nd nd | nd | 1/9 (3.67)
Y52I G103Q T104V | nd nd nd | nd | 0/9
L29S G33E G55K | nd nd nd | nd | 3/9 (3.43)
N30H G61Y A102R | nd nd nd | nd | 1/9 (2.53)
R57Y F59Q S107D | nd nd nd | nd | 0/9
Y32T A101Q A102T | nd nd nd | nd | 0/9
I34Y T58N | nd nd nd | nd | 0/9
G61E | 0.31 0.60 0.43 | 0.45 | 2/9 (4.29)
N30R I51H T104N | 4.88 2.92 nd | 3.90 | 0/9
Y32M D54K T58G | nd nd nd | nd | 2/9 (4.07)
R57C G99I A102N | 4.46 3.78 3.99 | 4.07 | 2/9 (3.58)
G55V | nd nd nd | nd | 3/9 (3.27)
G26Y S31G S35Q | nd nd nd | nd | 2/9 (1.81)
Y52H | 3.50 3.06 2.94 | 3.17 | 3/9 (4.50)
T28P R57D D106S | nd nd nd | nd | 0/9
G26W S31K I34H | 4.25 nd nd | 4.25 | 3/9 (4.41)
T28R L29C G99N | nd nd nd | nd | 1/9 (2.09)
Y52N D54F | nd nd nd | nd | 1/9 (3.55)
V64D G99L | 2.98 nd nd | 2.98 | 2/9 (2.94)
D62V A102Q | nd 3.49 nd | 3.49 | 0/9
T28E K65A R100S | 0.82 1.04 1.02 | 0.96 | 1/9 (3.12)
Y32C Y52V F105E | 4.22 4.57 nd | 4.40 | 3/9 (4.38)
Y52A F59G G61R | 2.11 1.93 1.86 | 1.97 | 4/9 (4.82)
F27E I51T Y60V | nd 4.61 4.24 | 4.42 | 2/9 (3.83)
Y32W F59S S107R | nd nd nd | nd | 1/9 (3.85)
F59C | 2.13 3.00 2.45 | 2.52 | 2/9 (4.17)
F27I S53I F105A | nd nd nd | nd | 0/9
G103Y F105W S107P | 0.61 0.77 0.65 | 0.68 | 0/9
F59H V64H A102P | nd nd nd | nd | 0/9
F27Y I34G D54K | nd nd 5.01 | 5.01 | 0/9
V50H V64Q S107W | nd nd nd | nd | 1/9 (1.59)

Picked from the list: the 4 lowest averages where every replicate gave a value.

changes,log10 Kd (nM) by replicate,"log10 Kd (nM), mean",empty controls
G61E,0.31 0.60 0.43,0.45,2/9 (4.29)
G103Y F105W S107P,0.61 0.77 0.65,0.68,0/9
T28E K65A R100S,0.82 1.04 1.02,0.96,1/9 (3.12)
A101F,1.15 1.49 1.39,1.34,1/9 (3.30)

In this assay the parent's reference entry averaged 0.65; its copy inside this library read 4.11 (one replicate of three).

The measurements come from Engelhart et al. 2022 (doi:10.1038/s41597-022-01779-4) through the FLAb antibody collection.